Data as given in ChEMBL document CHEMBL4828707, “Discovery of phenyl-linked symmetric small molecules as inhibitors of the programmed cell death-1/programmed cell death-ligand 1 interaction” (Eur J Med Chem, 2021).

Sequences of proteins named here, by UniProt entry; tags and fusion partners are left off. A change or cut given only in a name is not applied to a line headed by its entry.
UniProt Q15116: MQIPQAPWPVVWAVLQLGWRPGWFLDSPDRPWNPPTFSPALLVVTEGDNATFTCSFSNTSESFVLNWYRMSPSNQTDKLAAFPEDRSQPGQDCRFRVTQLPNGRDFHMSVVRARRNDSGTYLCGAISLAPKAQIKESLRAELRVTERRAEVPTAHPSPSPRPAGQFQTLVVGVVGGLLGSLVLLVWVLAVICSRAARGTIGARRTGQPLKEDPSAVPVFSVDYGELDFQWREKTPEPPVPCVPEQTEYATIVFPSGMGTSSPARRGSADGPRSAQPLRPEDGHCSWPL
UniProt Q9NZQ7: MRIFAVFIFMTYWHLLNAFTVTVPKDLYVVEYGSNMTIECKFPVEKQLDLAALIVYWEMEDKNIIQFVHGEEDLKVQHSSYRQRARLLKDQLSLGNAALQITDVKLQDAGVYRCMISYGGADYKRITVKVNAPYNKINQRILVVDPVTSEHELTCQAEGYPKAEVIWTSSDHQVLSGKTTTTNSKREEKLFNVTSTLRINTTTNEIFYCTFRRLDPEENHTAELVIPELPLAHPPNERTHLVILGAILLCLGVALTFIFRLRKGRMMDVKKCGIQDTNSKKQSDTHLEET

biological target: T1, Programmed cell death protein 1/Programmed cell death 1 ligand 1 (Homo sapiens, UniProt Q15116+Q9NZQ7); test: Inhibition of Tag2-PD1/Tag1-PD-L1 (unknown origin) protein-protein interaction preincubated for 15 mins followed by addition of anti-Tag1-Eu3+ and anti-Tag2-XL665 at 1 uM measured after 2 hrs in dark by HTRF assay; format: protein-complex assay; conditions: time 135.0 min

Row | Compound | inhibition [%]
1 | COc1cc(-c2cccc(-c3ccc4c(c3)OCCO4)c2C)ccc1CNCCO | 94
2 | Cc1c(-c2ccc3c(c2)OCCO3)cccc1-c1ccc(CNCCO)s1 | 65.4

biological target: T1, Programmed cell death protein 1/Programmed cell death 1 ligand 1; test: Inhibition of Tag2-PD1/Tag1-PD-L1 (unknown origin) protein-protein interaction preincubated for 15 mins followed by addition of anti-Tag1-Eu3+ and anti-Tag2-XL665 at 5 uM measured after 2 hrs in dark by HTRF assay; format: protein-complex assay; conditions: time 135.0 min

Row | Compound | inhibition [%]
3 | Cc1c(-c2ccc3c(c2)NCC(=O)N(CCO)C3)cccc1-c1ccc2c(c1)OCCO2 | 12.5
4 | Cc1c(-c2ccc3c(c2)OC(=O)N(CCO)C3)cccc1-c1ccc2c(c1)OCCO2 | 25.2
5 | Cc1c(-c2ccc3c(c2)CCCN(CCO)C3)cccc1-c1ccc2c(c1)OCCO2 | 2.76
6 | Cc1c(-c2ccc3c(c2)OC(=O)N(CC(=O)O)C3)cccc1-c1ccc2c(c1)OCCO2 | 0.54
